# Measured values reported in PubChem BioAssay AID652106 (National Center for Advancing Translational Sciences (NCATS), 2013).
# Hit rate of the full screen: of about 370,000 compounds, about 500 (0.14%) were called active. These results got no clear call from the source, so the numbers are uncertain. The call rests on the fitted dose curve; in most records, active means well fitted activation curve with a large enough effect; inconclusive means small, poorly fitted or top-dose-only effect; inactive means no such curve, though single readings can be large or run the other way.
# Assay: qHTS of alpha-syn Inhibitors; further: nearly all actives have a fitted effect of over 65% in size; on growth rescue (activation): % of control where 0% means no effect
# Details: Yeast expressing alpha-synuclein, BacTiter-Glo, 24 h; Potency: growth rescue; growth rescue (activation): at 46.1 µM (top of the series)
# Text: The goal of this project is to identify new chemical probes capable of reversing the toxicity associated with the Parkinson disease-related protein, alpha-synuclein. Compounds will be selected on their ability to restore growth in yeast cells expressing toxic levels of alpha-synuclein. These compounds will provide a complementary approach to deciphering the tangled mechanisms of toxicity and protection that we have uncovered through genome-wide genetic screens and are beginning to uncover in a large-scale proteomics analysis with mass spectroscopy. To this end, a miniaturized assay was developed to be screened against the Molecular Libraries Small Molecule Repository (MLSMR) to discover alpha-synuclein inhibitors. Please note that in the set-up this yeast-based assay compounds that inhibit as alpha-syn, have a read-out as activators. NIH Chemical Genomics Center [NCGC] NIH Molecular Libraries Probe Centers Network [MLPCN] MLPCN Grant: NS060957 Assay Submitter (PI): Susan Lindquist, Whitehead Institute/MIT
# Dispense 2.5 microL yeast galactose medium per 1536-well plate, pin compound, dispense 2.5 microL alpha-synuclein expressing yeast in galactose medium at OD600=0.02 (pregrown in raffinose medium to mid-log phase) per well, incubate for 24 hr at 30 deg C, and cell growth will be measured using 5 microL of Bactiter/Glo reagent to entire plate and read using Luminescence Protocol in ViewLux.
# Potency means the concentration at half of the fitted maximal effect.
SMILES,growth rescue (activation),Potency
CN(C)C(=O)c1cc([N+](=O)[O-])cc2c1-c1c(cc([N+](=O)[O-])cc1[N+](=O)[O-])C2=O,inconclusive: -73.4%,–
ClCCN(CCCl)c1ccc(CC2C=CC=C2)cc1,–,inconclusive: 5.62 µM
O=C(O)c1ccccc1[As](=O)(O)O,–,inconclusive: 28.2 µM
Nc1ccc(CCCCOc2ccccc2)cc1,–,inconclusive: 3.55 µM
Cc1ccc(OP(=O)(Nc2ccccn2)Oc2ccc(C)cc2)cc1,–,inconclusive: 35.5 µM
